The source of these data is patent US10266526B2, “Substituted 1,2,3-triazoles as SMYD inhibitors for treating cancer” (EPIZYME, INC., priority 2014, dated 2019).

Sequences of proteins named here, by UniProt entry; tags and fusion partners are left off. A change or cut given only in a name is not applied to a line headed by its entry.
UniProt Q9NRG4: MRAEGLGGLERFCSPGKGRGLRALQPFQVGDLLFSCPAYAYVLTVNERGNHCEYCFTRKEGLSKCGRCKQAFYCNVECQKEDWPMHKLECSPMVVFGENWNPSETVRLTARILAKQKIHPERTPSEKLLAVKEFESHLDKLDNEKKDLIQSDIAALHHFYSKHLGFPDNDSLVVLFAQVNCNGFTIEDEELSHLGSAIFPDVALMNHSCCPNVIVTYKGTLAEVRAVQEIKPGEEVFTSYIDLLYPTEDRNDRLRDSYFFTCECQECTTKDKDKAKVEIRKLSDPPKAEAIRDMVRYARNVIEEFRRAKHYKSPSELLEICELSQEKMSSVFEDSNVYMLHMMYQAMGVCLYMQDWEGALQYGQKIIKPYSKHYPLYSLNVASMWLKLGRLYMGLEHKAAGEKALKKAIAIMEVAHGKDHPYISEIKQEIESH

One assay addresses SMYD2 (Homo sapiens (Human), UniProt Q9NRG4). As to the kind of experiment: SMYD2 biochemical assay (SMYD2 enzyme assay on peptide substrate, 3H-SAM Flashplate). Particulars: SMYD2 Biochem IC50 (μM), IC50 values are an average of n = 1 to n = 50.
Consider `O=C(NC1CN(C[C@H]2C[C@@H](OCc3ccccc3)C2)C1)c1cn(C2CC2)nn1` [compound 1008, rac-N-(1-(((1s,3s)-3-(benzyloxy)cyclobutyl)methyl)azetidin-3-yl)-1-cyclopropyl-1H-1,2,3-triazole-4-carboxamide], for which half-maximal inhibition (IC50) required 1.2 µM.

Staying with this assay, now noted: SMYD2 Biochem IC50, IC50 values are an average of n = 1 to n = 50.
For `O=C(NC1CN(C[C@H]2C[C@H](OCc3ccccc3)C2)C1)c1cn(C2CC2)nn1` [compound 852, (±)-trans-N-(1-{[3-(benzyloxy)cyclobutyl]methyl}azetidin-3-yl)-1-cyclopropyl-1H-1,2,3-triazole-4-carboxamide], the IC50 (usually the concentration needed to halve the response being measured) was determined as 0.982 µM.
`O=C(NC1CN(C[C@H]2C[C@@H](OCc3ccccc3)C2)C1)c1cn(C2CC2)nn1` [compound 843, (±)-cis-N-(1-{[3-(benzyloxy)cyclobutyl]methyl}azetidin-3-yl)-1-cyclopropyl-1H-1,2,3-triazole-4-carboxamide] came in with an IC50 of 1.16 µM.
Same read-out and setting: with `C[C@@H](c1cc(Cl)ccc1Cl)N1CC(NC(=O)c2cn(C3CC3)nn2)C1` (single isomer, unassigned) [compound 779] the figure was 0.11 µM.
Same read-out and setting: with `COc1ccccc1[C@H](C)N1CC(NC(=O)c2cn(C3CC3)nn2)C1` (single isomer, unassigned) [compound 780] the figure was 0.347 µM.
For `COc1cccc([C@@H](C)N2CC(NC(=O)c3cn(C4CC4)nn3)C2)c1OC` (single isomer, unassigned) [compound 804], half-maximal inhibition (IC50) was put at 0.0443 µM.

The same assay, now with this note: read-out: SMYD2 Biochem IC50; IC50 values are an average of n = 1 to n = 50.
Turning to `COCC(c1ccccc1)N1CC(NC(=O)c2cn(C3CC3)nn2)C1` (stereo not drawn) [compound 752, 1-cyclopropyl-N-[1-(2-methoxy-1-phenylethyl)azetidin-3-yl]-1H-1,2,3-triazole-4-carboxamide], the IC50 is 6.09 µM.
Same read-out and setting: with `O=C(NC1CN(Cc2cncn2CCc2ccccc2)C1)c1cn(C2CC2)nn1` [compound 810, 1-cyclopropyl-N-(1-{[1-(2-phenylethyl)-1H-imidazol-5-yl]methyl}azetidin-3-yl)-1H-1,2,3-triazole-4-carboxamide] the figure was 9.29 µM.
The same measure, in the same setting: the same measure for `CC[C@@H](c1ccccc1)N1CC(NC(=O)c2cn(C3CC3)nn2)C1` [compound 722, 1-cyclopropyl-N-{1-[(1S)-1-phenylpropyl]azetidin-3-yl}-1H-1,2,3-triazole-4-carboxamide]: 0.198 µM; for `O=C(NC1CN(Cc2ccc(OCC(O)CO)cc2)C1)c1cn(C2CC2)nn1` (stereo not drawn) [compound 819, 1-cyclopropyl-N-(1-{[4-(2,3-dihydroxypropoxy)phenyl]methyl}azetidin-3-yl)-1H-1,2,3-triazole-4-carboxamide]: 1.99 µM.
On the same count and under the same terms, with `CC(c1cccc(Cl)c1)N1CC(NC(=O)c2cn(C3CC3)nn2)C1` (stereo not drawn) [compound 695, N-{1-[1-(3-chlorophenyl)ethyl]azetidin-3-yl}-1-cyclopropyl-1H-1,2,3-triazole-4-carboxamide] the figure was 1.01 µM; with `CC(c1ccc(OCc2cccc(Cl)c2)cc1)N1CC(NC(=O)c2cn(C3CC3)nn2)C1` (stereo not drawn) [compound 997, N-(1-(1-(4-((3-chlorobenzyl)oxy)phenyl)ethyl)azetidin-3-yl)-1-cyclopropyl-1H-1,2,3-triazole-4-carboxamide], 0.27 µM; with `CCN1CC(NC(=O)c2cn(C3CC3)nn2)C1` [compound 661, 1-cyclopropyl-N-(1-ethylazetidin-3-yl)-1H-1,2,3-triazole-4-carboxamide], 1.58 µM.
Turning to `CC(c1ccc(OCc2cccc(Cl)c2)cc1)N1CC(NC(=O)c2cn(C3CC3)nn2)C1` (stereo not drawn) [compound 847, N-[1-(1-{4-[(3-chlorophenyl)methoxy]phenyl}ethyl)azetidin-3-yl]-1-cyclopropyl-1H-1,2,3-triazole-4-carboxamide], the IC50 came out at 0.274 µM.
The same measure, in the same setting: with `COc1ccccc1C(C)N1CC(NC(=O)c2cn(C3CC3)nn2)C1` (stereo not drawn) [compound 683, 1-cyclopropyl-N-{1-[1-(2-methoxyphenyl)ethyl]azetidin-3-yl}-1H-1,2,3-triazole-4-carboxamide] the figure was 0.797 µM.
Same read-out and setting: with `CC(c1ccc(OCC2CCCNC2)cc1)N1CC(NC(=O)c2cn(C3CC3)nn2)C1` (stereo not drawn) [compound 990, 1-cyclopropyl-N-(1-(1-(4-(piperidin-3-ylmethoxy)phenyl)ethyl)azetidin-3-yl)-1H-1,2,3-triazole-4-carboxamide] the figure was 3.3 µM; with `CC(c1cc(Cl)ccc1Cl)N1CC(NC(=O)c2cn(C3CC3)nn2)C1` (stereo not drawn) [compound 697, 1-cyclopropyl-N-{1-[1-(2,5-dichlorophenyl)ethyl]azetidin-3-yl}-1H-1,2,3-triazole-4-carboxamide], 0.189 µM.
For `COc1cccc(C(C)N2CC(NC(=O)c3cn(C4CC4)nn3)C2)c1OC` (stereo not drawn) [compound 764, 1-cyclopropyl-N-{1-[1-(2,3-dimethoxyphenyl)ethyl]azetidin-3-yl}-1H-1,2,3-triazole-4-carboxamide], the IC50 is 0.0935 µM.
On the same count and under the same terms, with `CCC(c1ccccc1)N1CC(NC(=O)c2cn(C3CC3)nn2)C1` (stereo not drawn) [compound 675, 1-cyclopropyl-N-[1-(1-phenylpropyl)azetidin-3-yl]-1H-1,2,3-triazole-4-carboxamide] the figure was 0.494 µM; with `COc1cccc(C(C)N2CC(NC(=O)c3cn(C4CC4)nn3)C2)c1OC` (stereo not drawn) [compound 763, 1-cyclopropyl-N-{1-[1-(2,3-dimethoxyphenyl)ethyl]azetidin-3-yl}-1H-1,2,3-triazole-4-carboxamide], 0.0886 µM; with `CC(C)(c1ccccc1)N1CC(NC(=O)c2cn(C3CC3)nn2)C1` [compound 757, 1-cyclopropyl-N-[1-(2-phenylpropan-2-yl)azetidin-3-yl]-1H-1,2,3-triazole-4-carboxamide], 3.88 µM.
Regarding `CC(c1ccc(OCC(=O)N2CCCCC2)cc1)N1CC(NC(=O)c2cn(C3CC3)nn2)C1` (stereo not drawn) [compound 1004, 1-cyclopropyl-N-(1-(1-(4-(2-oxo-2-(piperidin-1-yl)ethoxy)phenyl)ethyl)azetidin-3-yl)-1H-1,2,3-triazole-4-carboxamide], the IC50 came out at 1.5 µM.
For `CC(c1ccc(Cl)c(C(F)(F)F)c1)N1CC(NC(=O)c2cn(C3CC3)nn2)C1` (stereo not drawn) [compound 712, N-(1-{1-[4-chloro-3-(trifluoromethyl)phenyl]ethyl}azetidin-3-yl)-1-cyclopropyl-1H-1,2,3-triazole-4-carboxamide], the half-inhibitory concentration (IC50) is 7.36 µM.
Still for that read-out and setting: the same measure for `CC(c1cccc(C(F)(F)F)c1)N1CC(NC(=O)c2cn(C3CC3)nn2)C1` (stereo not drawn) [compound 748, 1-cyclopropyl-N-(1-{1-[3-(trifluoromethyl)phenyl]ethyl}azetidin-3-yl)-1H-1,2,3-triazole-4-carboxamide]: 2.81 µM; for `CC(c1ccc(NC(=O)c2ccccc2)cc1)N1CC(NC(=O)c2cn(C3CC3)nn2)C1` (stereo not drawn) [compound 863, N-{1-[1-(4-benzamidophenyl)ethyl]azetidin-3-yl}-1-cyclopropyl-1H-1,2,3-triazole-4-carboxamide]: 1.74 µM; for `CCC(c1nccs1)N1CC(NC(=O)c2cn(C3CC3)nn2)C1` (stereo not drawn) [compound 751, 1-cyclopropyl-N-{1-[1-(1,3-thiazol-2-yl)propyl]azetidin-3-yl}-1H-1,2,3-triazole-4-carboxamide]: 21 µM.
Take `CC(C)C(c1ccc(F)cc1)N1CC(NC(=O)c2cn(C3CC3)nn2)C1` (stereo not drawn) [compound 760, 1-cyclopropyl-N-{1-[1-(4-fluorophenyl)-2-methylpropyl]azetidin-3-yl}-1H-1,2,3-triazole-4-carboxamide]: the half-inhibitory concentration (IC50) stood at 3.27 µM.
With `CC(c1cncnc1)N1CC(NC(=O)c2cn(C3CC3)nn2)C1` (stereo not drawn) [compound 699, 1-cyclopropyl-N-{1-[1-(pyrimidin-5-yl)ethyl]azetidin-3-yl}-1H-1,2,3-triazole-4-carboxamide], the 50% inhibitory concentration (IC50) turned out to be 9.54 µM.
In the case of `CC(c1ccc(Cl)cc1)N1CC(NC(=O)c2cn(C3CC3)nn2)C1` (stereo not drawn) [compound 676, N-{1-[1-(4-chlorophenyl)ethyl]azetidin-3-yl}-1-cyclopropyl-1H-1,2,3-triazole-4-carboxamide], the 50% inhibitory concentration (IC50) was 2.18 µM.
Still for that read-out and setting: with `CC(c1cccc(OCCN(C)C)c1)N1CC(NC(=O)c2cn(C3CC3)nn2)C1` (stereo not drawn) [compound 706, 1-cyclopropyl-N-[1-(1-{3-[2-(dimethylamino)ethoxy]phenyl}ethyl)azetidin-3-yl]-1H-1,2,3-triazole-4-carboxamide] the figure was 2.12 µM; with `CN(C)CCOc1cccc(CN2CC(NC(=O)c3cn(C4CC4)nn3)C2)c1` [compound 736, 1-cyclopropyl-N-[1-({3-[2-(dimethylamino)ethoxy]phenyl}methyl)azetidin-3-yl]-1H-1,2,3-triazole-4-carboxamide], 2.81 µM; with `CC(c1ccc(F)c(F)c1)N1CC(NC(=O)c2cn(C3CC3)nn2)C1` (stereo not drawn) [compound 687, 1-cyclopropyl-N-{1-[1-(3,4-difluorophenyl)ethyl]azetidin-3-yl}-1H-1,2,3-triazole-4-carboxamide], 2.9 µM.
On the same count and under the same terms, the same measure for `CC(c1ccc(F)cc1F)N1CC(NC(=O)c2cn(C3CC3)nn2)C1` (stereo not drawn) [compound 677, 1-cyclopropyl-N-{1-[1-(2,4-difluorophenyl)ethyl]azetidin-3-yl}-1H-1,2,3-triazole-4-carboxamide]: 2.86 µM; for `CC(Cc1ccccc1)N1CC(NC(=O)c2cn(C3CC3)nn2)C1` (stereo not drawn) [compound 759, 1-cyclopropyl-N-[1-(1-phenylpropan-2-yl)azetidin-3-yl]-1H-1,2,3-triazole-4-carboxamide]: 1.39 µM; for `CC(c1ccc(OCC(=O)N2CCCCC2)cc1)N1CC(NC(=O)c2cn(C3CC3)nn2)C1` (stereo not drawn) [compound 844, 1-cyclopropyl-N-[1-(1-{4-[2-oxo-2-(piperidin-1-yl)ethoxy]phenyl}ethyl)azetidin-3-yl]-1H-1,2,3-triazole-4-carboxamide]: 1.55 µM.
Consider `CNCc1cccc(CN2CC(NC(=O)c3cn(C4CC4)nn3)C2)c1` [compound 753, 1-cyclopropyl-N-[1-({3-[(methylamino)methyl]phenyl}methyl)azetidin-3-yl]-1H-1,2,3-triazole-4-carboxamide], for which the IC50 is 16 µM.
